Reference: article PMC10249106 (ACS Omega, 2023)

Amino acid sequences for entries named in this document (tags omitted).
UniProt P11309, whole entry: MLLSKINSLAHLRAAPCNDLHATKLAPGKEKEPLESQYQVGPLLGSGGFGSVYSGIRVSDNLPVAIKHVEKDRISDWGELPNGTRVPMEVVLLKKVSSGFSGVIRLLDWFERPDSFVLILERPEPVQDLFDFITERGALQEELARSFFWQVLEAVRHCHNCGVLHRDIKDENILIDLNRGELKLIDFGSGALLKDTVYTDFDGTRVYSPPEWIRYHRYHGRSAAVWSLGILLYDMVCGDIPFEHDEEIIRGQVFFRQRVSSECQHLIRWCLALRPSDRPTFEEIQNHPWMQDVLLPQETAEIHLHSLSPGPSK

Target: Pim-1 kinase (Homo sapiens, UniProt P11309)
Assay: Pim-1 kinase inhibition, luminescent ADP-Glo kinase assay
Type: biochemical

SMILES: O=c1c(O)c(-c2ccc(O)c(O)c2)oc2cc(O)c(O)c(O)c12 [quercetagetin, 3,3′,4′,5,6,7-hexahydroxyflavone, reference compound]
- IC50: 560 ± 30 nM
